# Measurements as given in PubChem BioAssay AID1963315 (National Center for Advancing Translational Sciences (NCATS), 2024).
# Sequences of proteins named here, by UniProt entry; tags and fusion partners are left off.
# UniProt P00519, whole entry, looked up: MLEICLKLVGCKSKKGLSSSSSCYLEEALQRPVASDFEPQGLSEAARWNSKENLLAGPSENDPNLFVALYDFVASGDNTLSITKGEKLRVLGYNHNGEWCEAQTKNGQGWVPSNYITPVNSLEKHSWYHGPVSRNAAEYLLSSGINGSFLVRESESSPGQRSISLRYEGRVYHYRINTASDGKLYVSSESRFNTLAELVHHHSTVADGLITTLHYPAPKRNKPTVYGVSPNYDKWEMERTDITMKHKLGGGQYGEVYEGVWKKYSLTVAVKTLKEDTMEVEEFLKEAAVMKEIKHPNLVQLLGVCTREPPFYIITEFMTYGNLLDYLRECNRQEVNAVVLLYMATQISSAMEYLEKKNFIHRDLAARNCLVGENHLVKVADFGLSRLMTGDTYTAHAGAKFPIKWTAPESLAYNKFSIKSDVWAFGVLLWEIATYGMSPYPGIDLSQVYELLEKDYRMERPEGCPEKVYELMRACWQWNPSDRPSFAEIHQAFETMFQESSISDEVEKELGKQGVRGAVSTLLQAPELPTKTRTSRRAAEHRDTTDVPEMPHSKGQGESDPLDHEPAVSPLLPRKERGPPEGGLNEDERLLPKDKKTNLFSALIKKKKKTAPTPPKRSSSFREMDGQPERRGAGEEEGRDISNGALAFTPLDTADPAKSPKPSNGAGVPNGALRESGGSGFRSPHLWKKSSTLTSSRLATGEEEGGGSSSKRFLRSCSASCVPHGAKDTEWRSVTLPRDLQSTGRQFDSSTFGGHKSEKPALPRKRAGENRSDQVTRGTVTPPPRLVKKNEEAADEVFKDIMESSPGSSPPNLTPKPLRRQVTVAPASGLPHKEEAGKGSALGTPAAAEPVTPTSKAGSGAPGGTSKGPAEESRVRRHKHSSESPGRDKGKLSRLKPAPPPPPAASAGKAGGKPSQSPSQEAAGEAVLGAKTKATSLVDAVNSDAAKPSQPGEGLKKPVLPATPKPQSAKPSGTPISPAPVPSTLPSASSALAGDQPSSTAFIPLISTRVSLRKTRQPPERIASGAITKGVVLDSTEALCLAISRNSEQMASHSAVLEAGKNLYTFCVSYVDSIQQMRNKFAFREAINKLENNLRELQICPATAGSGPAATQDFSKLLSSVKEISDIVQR
# Only a part is listed here, and it is no random draw. Records with an inconclusive call do not appear. Activity calls are given as the source filed them. Calls follow the shape of the full dose curve.
# Target: Tyrosine-protein kinase ABL1 (Homo sapiens) (UniProt P00519)
# Assay: ABL1 kinase (ABL1-N-HiBiT) SDR gain of signal screen
# Conditions: Purified ABL1-N-HiBiT enzyme, Nano-Glo HiBiT luminescence, 30 min compound incubation
# Source text: National Center for Advancing Translational Sciences (NCATS),
# National Institute of Health (NIH), Maryland
# Discovery and optimization of novel protein-binding ligands underlies many of the methods and applications of biology, drug discovery, clinical diagnostics, and environmental toxicology. Assays for detecting the interaction of, for example, a molecule with a macromolecular target also referred to here as the target of interest (TOI) is dependent on a compatible output technology. Depending on the nature and knowledge surrounding the TOI, whether a receptor, enzyme, regulatory subunit or scaffold, or a sequence-defined nucleic acid folded into a complex tertiary structure, assay strategies can vary widely.
# Here we exploit ligand-biased changes in the structural dynamics of the target protein to control reporter alpha complementation allowing a non-competitive, non-functional, non-separation measure of ligand-target interaction. […]
# SEQUENCE No. (e.g., 1, 2, 3, etc.); […] (e.g., C. elegans, Compounds, Incubation, Read, etc.); VALUE and DESCRIPTION. […]
# 6. […] (SDR assay) Luminescence measured using CCD-based camera (ViewLux) with settings as follows: Exposure, 1 sec; Gain, High; Speed, Slow; Binning, 2X. […]
smiles,measurement,value
Cc1ccc(NC(=O)c2ccc(CN3CCN(C)CC3)cc2)cc1Nc1nc(-c2cccnc2)cs1,Potency,active: 0.807 µM
